Assay results from patent US8748375B2 (Amylin Pharmaceuticals, LLC, priority 2009, dated 2014).

Legend:
amylin receptors = biological target: T1, amylin receptors (Rattus norvegicus, UniProt P32214+Q9JJ74); assay: Receptor Binding Assay
T1 construct: This basal forebrain tissue, containing the nucleus accumbens and surrounding regions, was weighed and homogenized; from tissue; host or cells: rat basal forebrain (nucleus accumbens and surrounding regions) membranes
T1 sequence (P32214 25-516): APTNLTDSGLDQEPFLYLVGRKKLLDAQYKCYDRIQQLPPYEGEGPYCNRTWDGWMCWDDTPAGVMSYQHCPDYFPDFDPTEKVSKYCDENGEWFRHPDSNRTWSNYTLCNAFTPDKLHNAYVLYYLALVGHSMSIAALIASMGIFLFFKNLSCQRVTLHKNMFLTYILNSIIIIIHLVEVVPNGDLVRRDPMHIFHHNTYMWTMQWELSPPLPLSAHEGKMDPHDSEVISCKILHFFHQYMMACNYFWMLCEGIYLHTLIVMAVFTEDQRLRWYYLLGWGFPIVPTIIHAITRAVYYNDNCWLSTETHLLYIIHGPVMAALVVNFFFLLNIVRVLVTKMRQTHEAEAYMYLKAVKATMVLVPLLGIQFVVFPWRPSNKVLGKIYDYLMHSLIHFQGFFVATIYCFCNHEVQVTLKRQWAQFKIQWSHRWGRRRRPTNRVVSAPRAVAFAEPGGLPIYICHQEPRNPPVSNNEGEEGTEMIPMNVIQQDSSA
T1 sequence (Q9JJ74 27-148): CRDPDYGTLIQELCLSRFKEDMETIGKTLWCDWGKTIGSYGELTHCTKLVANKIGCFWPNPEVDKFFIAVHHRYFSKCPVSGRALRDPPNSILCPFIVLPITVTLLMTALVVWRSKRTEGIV
From the text: A preferred source of the membrane preparations used in the assay is the basal forebrain which comprises membranes from the nucleus accumbens and surrounding regions.
Unlabeled peptides were obtained from BACHEM Inc. (Torrance, Calif.) and Peninsula Laboratories (Belmont, Calif.).
Male Sprague-Dawley rats (200-250) grams were sacrificed by decapitation. Brains were removed to cold phosphate-buffered saline (PBS). From the ventral surface, cuts were made rostral to the hypothalamus, bounded laterally by the olfactory tracts and extending at a 45° angle medially from these tracts. This basal forebrain tissue, containing the nucleus accumbens and surrounding regions, was weighed and homogenized in ice-cold 20 mM HEPES buffer (20 mM HEPES acid, pH adjusted to 7.4 with NaOH at 23° C.). […] The final membrane pellet was resuspended in 20 mM HEPES buffer containing 0.2 mM phenylmethylsulfonyl fluoride (PMSF).
Solutions were incubated for 60 minutes at 23° C. […] Filters were washed immediately before filtration with 5 ml cold PBS, and immediately after filtration with 15 ml cold PBS.

[1] = test system: insulin-stimulated glycogen synthesis in soleus muscle; assay: Soleus Muscle Assay; format: cell-based, rat
Experimental: Concentrations of peptide dissolved in carrier-free buffers are determined by quantitative amino acid analysis, as described therein. The ability of compounds to act as agonists in this assay is determined by measuring EC50 values. […] Similar results were obtained with other agonist compounds listed above.

SMILES | receptor binding activity (in words) (amylin receptors) | amylin agonist activity (in words) [1] | antagonist activity in soleus muscle assay (in words) [1]
CC[C@H](C)[C@H](NC(=O)[C@@H]1CCCN1C(=O)CNC(=O)[C@H](Cc1ccccc1)NC(=O)[C@H](CC(N)=O)NC(=O)[C@H](CC(N)=O)NC(=O)[C@H](CO)NC(=O)[C@H](CO)NC(=O)[C@H](CCCNC(=N)N)NC(=O)[C@@H](NC(=O)[C@H](CC(C)C)NC(=O)[C@H](Cc1ccccc1)NC(=O)[C@H](CC(N)=O)NC(=O)[C@H](C)NC(=O)[C@H](CC(C)C)NC(=O)[C@H](CCCNC(=N)N)NC(=O)[C@H](CCC(N)=O)NC(=O)[C@@H](NC(=O)[C@H](C)NC(=O)[C@@H]1CSSC[C@H](N)C(=O)N[C@@H](CC(N)=O)C(=O)N[C@@H]([C@@H](C)O)C(=O)N[C@@H](C)C(=O)N[C@@H]([C@@H](C)O)C(=O)N1)[C@@H](C)O)C(C)C)C(=O)N[C@@H](CC(C)C)C(=O)N1CCC[C@H]1C(=O)N[C@@H](CO)C(=O)N[C@H](C(=O)N[C@@H](CC(N)=O)C(=O)N[C@H](C(=O)NCC(=O)N[C@@H](CO)C(=O)N[C@@H](CC(N)=O)C(=O)N[C@H](C(=O)N[C@@H](Cc1ccc(O)cc1)C(N)=O)[C@@H](C)O)C(C)C)[C@@H](C)O [des-^1Lys^18Arg^25, 28Pro-h-Amylin] | compete with amylin | act as amylin agonists | negligible antagonist activity
CC[C@H](C)[C@H](NC(=O)[C@@H]1CCCN1C(=O)CNC(=O)[C@H](Cc1ccccc1)NC(=O)[C@H](CC(N)=O)NC(=O)[C@H](CC(N)=O)NC(=O)[C@H](CO)NC(=O)[C@H](CO)NC(=O)[C@H](Cc1c[nH]cn1)NC(=O)[C@@H](NC(=O)[C@H](CC(C)C)NC(=O)[C@H](Cc1ccccc1)NC(=O)[C@H](CC(N)=O)NC(=O)[C@H](C)NC(=O)[C@H](CC(C)C)NC(=O)[C@H](CCCNC(=N)N)NC(=O)[C@H](CCC(N)=O)NC(=O)[C@@H](NC(=O)[C@H](C)NC(=O)[C@@H]1CSSC[C@H](N)C(=O)N[C@@H](CC(N)=O)C(=O)N[C@@H]([C@@H](C)O)C(=O)N[C@@H](C)C(=O)N[C@@H]([C@@H](C)O)C(=O)N1)[C@@H](C)O)C(C)C)C(=O)N[C@@H](CC(C)C)C(=O)N1CCC[C@H]1C(=O)N1CCC[C@H]1C(=O)N[C@H](C(=O)N[C@@H](CC(N)=O)C(=O)N[C@H](C(=O)NCC(=O)N[C@@H](CO)C(=O)N[C@@H](CC(N)=O)C(=O)N[C@H](C(=O)N[C@@H](Cc1ccc(O)cc1)C(N)=O)[C@@H](C)O)C(C)C)[C@@H](C)O [des-^1Lys^25, 28, 29Pro-h-Amylin] | compete with amylin | act as amylin agonists | negligible antagonist activity
